Patent publication US9757471B2, “Protozoan variant-specific surface proteins (VSP) as carriers for oral drug delivery” (priority 2012, dated 2017)
“Also recorded” adds a separate entry of the source.

Tested on: trypsin
Conditions: combined with VSP carrier at 1:3 glucagon to VSP ratio

## CSCC[C@H](NC(=O)[C@H](CC(C)C)NC(=O)[C@H](Cc1c[nH]c2ccccc12)NC(=O)[C@H](CCC(N)=O)NC(=O)[C@@H](NC(=O)[C@H](Cc1ccccc1)NC(=O)[C@H](CC(=O)O)NC(=O)[C@H](CCC(N)=O)NC(=O)[C@H](C)NC(=O)[C@H](CCCN=C(N)N)NC(=O)[C@H](CCCN=C(N)N)NC(=O)[C@H](CO)NC(=O)[C@H](CC(=O)O)NC(=O)[C@H](CC(C)C)NC(=O)[C@H](Cc1ccc(O)cc1)NC(=O)[C@H](CCCCN)NC(=O)[C@H](CO)NC(=O)[C@H](Cc1ccc(O)cc1)NC(=O)[C@H](CC(=O)O)NC(=O)[C@H](CO)NC(=O)[C@@H](NC(=O)[C@H](Cc1ccccc1)NC(=O)[C@@H](NC(=O)CNC(=O)[C@H](CCC(N)=O)NC(=O)[C@H](CO)NC(=O)[C@@H](N)Cc1c[nH]cn1)[C@@H](C)O)[C@@H](C)O)C(C)C)C(=O)N[C@@H](CC(N)=O)C(=O)N[C@H](C(=O)O)[C@@H](C)O [glucagon]
  resistance of glucagon to trypsin proteolysis: increased the resistance; also recorded: protects glucagon from trypsin degradation
